Our source for the Kd values is PMC6276879.

By UniProt entry, the sequences of proteins in these tests, tags left out. Residues count along the entry.
UniProt O60260, 141-465: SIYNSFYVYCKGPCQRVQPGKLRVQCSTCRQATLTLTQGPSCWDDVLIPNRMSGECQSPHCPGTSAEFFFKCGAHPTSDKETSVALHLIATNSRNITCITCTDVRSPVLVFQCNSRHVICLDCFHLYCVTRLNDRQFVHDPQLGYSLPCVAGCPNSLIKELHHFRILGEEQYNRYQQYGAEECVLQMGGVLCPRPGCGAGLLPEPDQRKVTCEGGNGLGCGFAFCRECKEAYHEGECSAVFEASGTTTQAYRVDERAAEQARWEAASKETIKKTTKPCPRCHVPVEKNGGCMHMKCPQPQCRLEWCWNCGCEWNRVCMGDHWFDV
UniProt P68036, whole entry: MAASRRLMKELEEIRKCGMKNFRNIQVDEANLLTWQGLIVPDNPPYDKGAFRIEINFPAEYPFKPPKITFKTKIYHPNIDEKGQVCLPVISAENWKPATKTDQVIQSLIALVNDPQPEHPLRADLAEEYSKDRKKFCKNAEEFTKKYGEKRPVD

The target in experiment [1] is parkin R0RBR (Homo sapiens) (UniProt O60260). Briefly: ITC. Particulars: cited from earlier work.
The next experiment addresses parkin (Homo sapiens) (UniProt O60260). Particulars: UbcH7 conjugated to Ub, phosphorylated parkin bound to pUb; remark: other sources report otherwise.

What is called Kd is the equilibrium constant for the complex coming apart. In the case of UbcH7-Ub (from UniProt P68036), the Kd was < 1000 nM in experiment [1] and 500 nM with parkin (Homo sapiens).
